Assay results from US20230015525A1, “Anaerobic Blood Storage and Pathogen Inactivation Method” (published 2023).

Columns and labels:
[1] = background, cited from earlier work
[2] = Standard kinetics of decomposition of S-303 in red blood cells without Hemanext processing step (Example 12); details: for half-life of S-303: RBC
DNA and RNA = details: background; cited from earlier work
[3] = Degradation of S-303 in RBCs in a combined Hemanext oxygen reduction and Intercept incubation protocol (Example 11)

amustaline
time until degradation of excess S-303 into S-300 is complete [1]: 16 to 18 h | half-life of residual S-303 decomposition ([1]; concentrations above 10 nM/L): about 20 minutes | half-life of S-303 ([2]; concentrations above 10 nmol/L, without volume exchange step): 20 min | half-life of S-303 ([2]; lower S-303 concentrations): greater than 6 hours | additional incubation time to decrease the level of S-303 below 1 nmol/L ([2]; after the 6-hour timepoint, absence of the Hemanext processing step): 12 h | residual S-303 at 6-hour incubation timepoint ([2]; standard kinetics, absence of the Hemanext processing step): about 11 times the acceptance criterion of 1 nmol/L | time until formation of covalent DNA and RNA adducts is complete (DNA and RNA): approximately 30 minutes | Concentration of S-303 ([3]; Hemanext to Intercept, 1 hour): 16267 ± 2517 nM | Concentration of S-303 ([3]; Hemanext to Intercept, 2 hours): 1403 ± 121 nM | Concentration of S-303 ([3]; Hemanext to Intercept, 3 hours): 124 ± 4 nM | Concentration of S-303 ([3]; Hemanext to Intercept, 4 hours): 25 ± 4 nM | Concentration of S-303 ([3]; Hemanext to Intercept, 5 hours): 2.3 ± 0.3 nM | Concentration of S-303 ([3]; Hemanext to Intercept, 6 hours): 0.54 ± 0.06 nM | Concentration of S-303 ([3]; Hemanext to Intercept, Post transfer into bag 2): 123300 ± 34468 nM | Concentration of S-303 ([3]; Hemanext to Intercept, timepoint Post S-303): 239333 ± 5508 nM | Concentration of S-303 ([3]; Intercept to Hemanext, 1 hour): 15900 ± 1212 nM | Concentration of S-303 ([3]; Intercept to Hemanext, 2 hours): 1727 ± 426 nM | Concentration of S-303 ([3]; Intercept to Hemanext, 3 hours): 61 ± 9 nM | Concentration of S-303 ([3]; Intercept to Hemanext, 4 hours): 7 ± 1 nM | Concentration of S-303 ([3]; Intercept to Hemanext, 5 hours): 1.5 ± 0.2 nM | Concentration of S-303 ([3]; Intercept to Hemanext, 6 hours): 0.88 ± 0.16 nM | Concentration of S-303 ([3]; Intercept to Hemanext, Post transfer into bag 2): 123333 ± 31754 nM | Concentration of S-303 ([3]; Intercept to Hemanext, timepoint Post S-303): 217333 ± 10970 nM
